How the values were obtained:
Homo sapiens = species on record: Homo sapiens; assay: Selectivity ratio of Ki for human His-tagged full length AURKAto Ki for GST-tagged full length ITK (unknown origin)
[1] = biological target: T1, Tyrosine-protein kinase ITK/TSK (Homo sapiens, UniProt Q08881)
T1 sequence (Q08881 whole entry): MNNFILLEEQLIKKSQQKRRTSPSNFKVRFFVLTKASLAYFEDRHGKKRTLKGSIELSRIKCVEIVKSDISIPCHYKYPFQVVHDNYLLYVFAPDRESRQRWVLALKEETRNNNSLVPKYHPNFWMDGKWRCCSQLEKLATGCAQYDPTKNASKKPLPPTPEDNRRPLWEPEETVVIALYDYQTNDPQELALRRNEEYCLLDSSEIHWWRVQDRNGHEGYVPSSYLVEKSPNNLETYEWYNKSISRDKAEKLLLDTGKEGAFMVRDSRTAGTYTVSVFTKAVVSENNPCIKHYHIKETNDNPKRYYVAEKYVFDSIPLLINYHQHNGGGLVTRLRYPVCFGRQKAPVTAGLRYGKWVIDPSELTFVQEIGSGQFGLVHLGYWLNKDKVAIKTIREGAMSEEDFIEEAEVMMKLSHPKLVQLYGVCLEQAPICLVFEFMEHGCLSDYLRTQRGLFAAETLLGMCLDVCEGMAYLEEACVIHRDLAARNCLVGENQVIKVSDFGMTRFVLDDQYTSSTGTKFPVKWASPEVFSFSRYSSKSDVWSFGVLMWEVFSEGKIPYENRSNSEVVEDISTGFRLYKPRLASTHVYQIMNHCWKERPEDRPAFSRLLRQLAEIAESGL

[2] = biological target: T1, Tyrosine-protein kinase ITK/TSK; remark: listed apart in the source

| SMILES | Ratio Ki (Homo sapiens) | IC50 [1] [nM] | Ki [2] [nM] |
| --- | --- | --- | --- |
| CC1CCc2c(C(=O)Nc3cnn(Cc4ccccc4)c3)n[nH]c2C1 (configuration not stated) | 6 |  |  |
| CC1CCc2c(C(=O)Nc3cnn(Cc4ccccc4)c3)n[nH]c2C1 (racemic) [listing 1 of 2 here] | 50 |  |  |
| O=C(Nc1cnn(Cc2ccccc2)c1)c1n[nH]c2c1CC1CC1C2 (racemic) |  | 7100 |  |
| CC1CCc2c(C(=O)Nc3cnn(Cc4ccccc4)c3)n[nH]c2C1 (racemic) [listing 2 of 2 here] |  | 930 |  |
| CC1(CO)CCc2c(C(=O)Nc3cnn(Cc4ccccc4)c3)n[nH]c2C1 (racemic) |  | 530 | 8 |
| O=C(Nc1cnn(Cc2ccccc2)c1)c1n[nH]c2c1CCC(F)(F)C2 | 5 |  |  |
| O=C(Nc1cnn(Cc2ccccc2)c1)c1n[nH]c2c1CCC1(CCOC1)C2 (racemic) | > 100 |  |  |
| O=C(Nc1cnn(Cc2ccccc2)c1)c1n[nH]c2c1CCC1(CCOC1)C2 (configuration not stated) |  |  | 55 |
| CC1(C)CCc2c(C(=O)Nc3cnn(Cc4ccccc4)c3)n[nH]c2C1 | 90 | 5200 |  |
| O=C(Nc1cnn(Cc2ccccc2)c1)c1n[nH]c2c1CCC1(CC1)C2 |  | 950 |  |
